# “And” between values parts separate entries of the source, which are not always exact repeats. Equal values may be shown once. The list shows a part of the results, in another mix than the full data. Results filed as inconclusive are left out. The source made the active and inactive calls. Calls come from the whole dose curve; as a rule, active = well fitted cell-killing curve with a large enough effect in the repeat runs; inconclusive = weak or mixed curves, or effect the other way; inactive = flat fitted curve, though single readings scatter.
# Experiment: cAMP Responsive Elements (CRE) small molecule antagonists, cell-based qHTS assay: qHTS cell viability counter screen (AID 2060913); note: nearly all actives have a fitted effect of over 40% in size
# Conditions: CRE-bla HEK293T viability, CellTiter-Glo luminescence, 5 h; at 92.4 µM (top of the series) unless noted
# Description: (§1) U.S. Tox21 Program National Center for Advancing Translational Sciences [NCATS] Division of Preclinical Innovation [DPI] U.S. Environmental Protection Agency [EPA] National Institutes of Environmental Health Sciences [NIEHS] National Toxicology Program [NTP] U.S. Food and Drug Administration [FDA] Tox21 Assay Overview: CREB (cyclic-AMP Responsive Element Binding Protein) is a cellular transcription factor. It binds to certain DNA sequences called cAMP Responsive Elements (CRE) and regulates the transcription of the genes. […] This cell line can be used to find agonists/antagonists of the cyclic AMP signaling pathway. The activation of the report gene under culture conditions can be detected by fluorescence intensity. This cell line has been used to screen the Tox21 10K compound library to identify agonists that induce oxidative stress. The cytotoxicity of the Tox21 compound library against the CRE-bla cell line was tested in parallel by measuring the cell viability using CellTiter-Glo assay (Promega, Madison, WI) in the same wells.
# Tox21 Assay Protocol Summary: CRE-bla Hek 293T cells were suspended in assay medium (DMEM containing 10% dialyzed FBS, 0.1 mM NEAA, 1 mM sodium pyruvate and 25 mM HEPES) and dispensed at 2,000 cells/4 uL /well into 1536-well black wall/clear bottom plates using a Multidrop Combi (ThermoFisher Scientific, Waltham, MA) dispenser. After the assay plates were incubated at 37 C/5% CO2 for 18 hrs, 23 nL of compounds dissolved in DMSO, positive controls or DMSO only was transferred to the assay plate by a pintool workstation (Kalypsys, San Diego, CA), followed by addition of 1 uL of 1.25uM NKH477 (0.25 uM as final concentration) in assay medium using a Flying Reagent Dispenser (Aurora Discovery, San Diego, CA). The plates were incubated at 37 C and 5% CO2 for 3 hrs. Then 1 uL of LiveBLAzer B/G FRET substrate (Invitrogen, Carlsbad, CA) was added to each well using Bioraptr Flying Reagent Dispenser (FRD, Aurora Discovery, San Diego, CA). The plates were incubated at room temperature for 2 h, then fluorescence intensities were measured using an Envision plate reader (PerkinElmer, Shelton, CT) at Excitation 405nm, Emission 460nm and 530nm. The % activity was determined from the ratio of 460nm/530nm. For cell viability readout that measures cytotoxicity, 4 uL /well of CellTiter-Glo reagent was added into the assay plates using Bioraptr FRD. After 30 min incubation at room temperature, the luminescence intensity in the assay plates was measured using a ViewLux (PerkinElmer, Shelton, CT) plate reader.
# % is set by controls: 0 for no effect and ±100 for the full control effect.
row,SMILES,"viability change, negative = cytotoxic"
1,ClCCNCCCl,inactive: -1.57%
2,CCOP(=S)(Cl)OCC,inactive: -6.19%
3,O=[N+]([O-])c1ccccc1[N+](=O)[O-],inactive: 4.68% and inactive: 0.224%
4,CCOP(=O)(Cl)Cl,inactive: 15% and inactive: -2.24%
5,CCC(=O)N(c1ccccc1)C1CCNCC1,inactive: 12.3% [at 42.5 µM]
6,CCOC(=O)N1CCC(=O)CC1,inactive: -1.31% [at 42.5 µM]
7,ClCCOP(OCCCl)OCCCl,inactive: 2.71% and inactive: -3.93%
8,CC(C)OP(OC(C)C)OC(C)C,inactive: 7.28%

# Experiment: cAMP Responsive Elements (CRE) small molecule agonists, cell-based qHTS assay: qHTS cell viability counter screen (AID 2060914);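 note: viability read after 3 h of compound exposure; nearly all actives have a fitted effect of over 50% in size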
# Conditions: CRE-bla HEK293T viability, CellTiter-Glo luminescence, 5 h; at 92.4 µM (top of the series) unless noted
# Description: National Center for Advancing Translational Sciences [NCATS]
# Division of Preclinical Innovation [DPI]
# U.S. Environmental Protection Agency [EPA]
# National Institutes of Environmental Health Sciences [NIEHS]
# National Toxicology Program [NTP]
# U.S. Food and Drug Administration [FDA]
# as §1, with “CREB” for “U.S. Tox21 Program National Center for Advancing Translational Sciences [NCATS] Division of Preclinical Innovation [DPI] U.S. Environmental Protection Agency [EPA] National Institutes of Environmental Health Sciences [NIEHS] National Toxicology Program [NTP] U.S. Food and Drug Administration [FDA] Tox21 Assay Overview: CREB”
# Tox21 Assay Protocol Summary:
# CRE-bla Hek 293T cells were suspended in assay medium (DMEM containing 10% dialyzed FBS, 0.1 mM NEAA, 1 mM sodium pyruvate and 25 mM HEPES) and dispensed at 2,000 cells/5 uL /well into 1536-well black wall/clear bottom plates using a Multidrop Combi (ThermoFisher Scientific, Waltham, MA) dispenser. After the assay plates were incubated at 37 C/5% CO2 for 18 hrs, 23 nL of compounds dissolved in DMSO, positive controls or DMSO only was transferred to the assay plate by a pintool workstation (Kalypsys, San Diego, CA). After the plates were incubated at 37 C/5% CO2 for 3 hrs, 1 uL of LiveBLAzer B/G FRET substrate (Invitrogen, Carlsbad, CA) was added to each well using Bioraptr Flying Reagent Dispenser (FRD, Aurora Discovery, San Diego, CA). The plates were incubated at room temperature for 2 h, then fluorescence intensities were measured using an Envision plate reader (PerkinElmer, Shelton, CT) at Excitation 405nm, Emission 460nm and 530nm. The % activity was determined from the ratio of 460nm/530nm. For cell viability readout that measures cytotoxicity, 4 uL /well of CellTiter-Glo reagent was added into the assay plates using Bioraptr FRD. After 30 min incubation at room temperature, the luminescence intensity in the assay plates was measured using a ViewLux (PerkinElmer, Shelton, CT) plate reader.
row,SMILES,"activity change, negative = cytotoxicity"
1,ClCCNCCCl,inactive: -0.542%
2,CCOP(=S)(Cl)OCC,inactive: -9.75%
3,O=[N+]([O-])c1ccccc1[N+](=O)[O-],inactive: 2.78% and inactive: -2.33%
4,CCOP(=O)(Cl)Cl,inactive: 2.68% and inactive: -9.86%
5,CCC(=O)N(c1ccccc1)C1CCNCC1,inactive: -6.64% [at 42.5 µM]
6,CCOC(=O)N1CCC(=O)CC1,inactive: -0.882% [at 42.5 µM]
7,ClCCOP(OCCCl)OCCCl,inactive: -5.94% and inactive: -10.2%
8,CC(C)OP(OC(C)C)OC(C)C,inactive: -4.17%
